SMILES strings stand for the structures. The list shows a part of the results, in another mix than the full data. The source made the active and inactive calls.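 The calls were made as follows: active = Every replicate reaches about 75%, or at least half do and their mean reaches it too (limit read from the data); inconclusive = At least half of replicates reach the limit but their mean does not; inactive = Under half of replicates reach the limit.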

The nature of the test: INS-1E beta cell survival under cytokines – luminescence, primary screen (AID 435005).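 Also: 0% = cytokine-treated negative control wells and 100% = positive control rescue; higher means more ATP so stronger rescue from cytokine killing.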 Conditions: INS-1E cytokine-induced death, ATP luminescence, 48 h; active compounds read high; percent of positive-control rescue, neutral wells zero; concentration not given here.
On to `CN(C)c1ccc(C(=O)NCC2(N3CCCCC3)CCCCC2)cc1`, for which the protection from apoptosis is inactive: -6.55%.

In the case of `O=C(NCC1(N2CCCCC2)CCCCC1)c1ccco1`, the protection from apoptosis is inactive: 0.524%.

Consider `CCN1CCC(Nc2cccc(F)c2)CC1`, for which the protection from apoptosis was inactive: 0.623%.

Consider `Fc1ccccc1NC1CCN(Cc2ccccc2)CC1`, for which the protection from apoptosis was inactive: -2%.

As to `Cc1ccc(C(=O)NCC2(N3CCCCC3)CCCCC2)o1`, the protection from apoptosis is inactive: 0.319%.

As for `COc1cc(OC)cc(C(=O)NCC2(N3CCCCC3)CCCCC2)c1`, the protection from apoptosis was inactive: -3.88%.

In the case of `CN1CCC(Nc2ccc(Cl)cc2)CC1`, the protection from apoptosis was inactive: 0.511%.

`CCC(CO)(C(=O)OC1CN2CCC1CC2)c1ccccc1` (stereo not given): the protection from apoptosis was inactive: -3.75%.

On to `COc1cc(OC)cc(C(=O)NCC2(N3CCOCC3)CCCCC2)c1`, for which the protection from apoptosis was inactive: -4.29%.

Regarding `COc1cccc(C(=O)N(c2cc(C)cc(C)c2)C2CCN(C(=O)OC(C)(C)C)CC2)c1`, the protection from apoptosis is inactive: 15.1%.

`CCCOc1ccc(C(=O)NCC2(N(C)C)CCCCC2)cc1`: the protection from apoptosis is inactive: 1.34%.

Take `O=C(O)C1(Nc2ccccc2)CCN(Cc2ccccc2)CC1`: the protection from apoptosis was inactive: -6.96%.

For the molecule `CC(C)(C)OC(=O)N1CCC(Nc2ccccc2)CC1`, the protection from apoptosis is inactive: 0.348%.

As for `CN1CCC(Nc2ccc(F)c(Cl)c2)CC1`, the protection from apoptosis was inactive: 4.06%.

For the molecule `CCOc1ncccc1C(=O)NCC1(N2CCOCC2)CCCCC1`, the protection from apoptosis is inactive: 1.45%.

With `CCc1cc(C(=O)NCC2(N3CCCCC3)CCCCC2)sc1C`, the protection from apoptosis is inactive: -5.8%.

In the case of `N/C(=N\O)c1c(N)no[n+]1[O-]`, the protection from apoptosis is inactive: -0.134%.

Consider `CCOC(=O)N1CCC(Nc2ccc(C)cc2)CC1`, for which the protection from apoptosis was inactive: -12%.

As to `COc1ccc(C(=O)NCC2(N3CCOCC3)CCCCC2)cc1OC`, the protection from apoptosis was inactive: -10.2%.

For the molecule `O=C(NCC1(N2CCOCC2)CCCCC1)c1cc(Br)ccc1Cl`, the protection from apoptosis was inactive: 21.3%.

As to `COc1cc(C(=O)NCC2(N3CCOCC3)CCCCC2)cc(OC)c1C`, the protection from apoptosis was inactive: 4.34%.

On to `CCCN1CCC(Nc2cc(OC)cc(OC)c2)CC1`, for which the protection from apoptosis is inactive: -17.6%.

With `c1ccc(CN2CCC(Nc3ccccc3)CC2)cc1`, the protection from apoptosis was inactive: -3.77%.

Take `CN(C)C1(CNC(=O)c2cccc(C#N)c2)CCCCC1`: the protection from apoptosis was inactive: -3.11%.

As to `CC(C)(C)OC(=O)N1CCC(N(C(=O)c2ccccc2)c2ccc(Cl)cc2)CC1`, the protection from apoptosis was inactive: 6.61%.

As to `N#Cc1ccc(C(=O)NCC2(N3CCCCC3)CCCCC2)cc1`, the protection from apoptosis is inactive: -3.29%.

`CN1CCN(CCOC(=O)C(O)(c2ccccc2)c2ccccc2)CC1`: the protection from apoptosis is inactive: 2.61%.

Turning to `COc1ccc(NC2CCN(C(=O)OC(C)(C)C)CC2)cc1`, the protection from apoptosis was inactive: 3.24%.

In the case of `COc1cc(C(=O)NCC2(N3CCCCC3)CCCCC2)ccc1OC(F)F`, the protection from apoptosis is inactive: -1.41%.

Take `O=C(NCC1(N2CCOCC2)CCCCC1)c1cc(=O)[nH]c2ccccc12`: the protection from apoptosis is inactive: -7.7%.

`O=C(NCC1(N2CCCCC2)CCCCC1)c1cccc(C(F)(F)F)c1`: the protection from apoptosis is inactive: -2.1%.

For the molecule `O=C(NCC1(N2CCCCC2)CCCCC1)c1cccc([N+](=O)[O-])c1`, the protection from apoptosis was inactive: -3.87%.

On to `N#CC1(Nc2ccccc2)CCN(CCc2ccccc2)CC1`, for which the protection from apoptosis is inactive: -2.14%.

Turning to `CCN1CCC(Nc2ccc(Cl)cc2)CC1`, the protection from apoptosis was inactive: 1.53%.

On to `O=C(NCC1(N2CCCCC2)CCCCC1)c1ccc(OC(F)F)cc1`, for which the protection from apoptosis is inactive: 3.69%.

`CCCOc1ccc(C(=O)NCC2(N(C)C)CCCCC2)cc1OC`: the protection from apoptosis was inactive: 2.59%.

As for `O=C(NCC1(N2CCCCC2)CCCCC1)c1cncc(Br)c1`, the protection from apoptosis is inactive: -7.49%.

Take `CN1CCC(Nc2cccc(F)c2)CC1`: the protection from apoptosis was inactive: -6.42%.

For `O=C(NCC1(N2CCOCC2)CCCCC1)c1cc(F)c(F)cc1Cl`, the protection from apoptosis was inactive: -5.15%.

As for `CN(C)c1cccc(C(=O)NCC2(N3CCCCC3)CCCCC2)c1`, the protection from apoptosis is inactive: 8.27%.

With `CC(C)c1ccc(NC2CCN(C(=O)OC(C)(C)C)CC2)cc1`, the protection from apoptosis was inactive: 10.9%.

In the case of `CCOC(=O)N1CCC(Nc2ccc(OC)cc2)CC1`, the protection from apoptosis is inactive: -2.74%.

For `COc1ccc(Cl)cc1C(=O)NCC1(N2CCOCC2)CCCCC1`, the protection from apoptosis was inactive: 3.9%.

Consider `O=C(OC1CN2CCC1CC2)C1c2ccccc2Oc2ccccc21` (stereo not given), for which the protection from apoptosis is inactive: -15.6%.

For `N#CC1(Nc2ccccc2)CCN(Cc2ccccc2)CC1`, the protection from apoptosis is inactive: 2.23%.

With `O=C(NCC1(N2CCCCC2)CCCCC1)c1ccc(Cl)s1`, the protection from apoptosis was inactive: -10.4%.

For the molecule `O=C(NCC1(N2CCOCC2)CCCCC1)c1cc2ccccc2o1`, the protection from apoptosis was inactive: -3.95%.

Turning to `Cc1cc(C)cc(N(C(=O)c2ccccc2)C2CCN(C(=O)OC(C)(C)C)CC2)c1`, the protection from apoptosis is inactive: 5.64%.

In the case of `O=C(NCC1(N2CCCCC2)CCCCC1)c1ccc(Cl)nc1`, the protection from apoptosis is inactive: -3.51%.

Regarding `CSc1ccccc1C(=O)NCC1(N2CCCCC2)CCCCC1`, the protection from apoptosis was inactive: -0.917%.

Consider `O=C(NCC1(N2CCCCC2)CCCCC1)c1cccs1`, for which the protection from apoptosis was inactive: -3.74%.

In the case of `O=C(NCC1(N2CCCCC2)CCCCC1)c1ccc(=O)[nH]c1`, the protection from apoptosis is inactive: -4.59%.

`COc1ccc(C(=O)NCC2(N3CCCCC3)CCCCC2)c(OC)c1OC`: the protection from apoptosis is inactive: -5.77%.

As for `CC(C)(C)OC(=O)N1CCC(N(C(=O)c2ccccc2)c2ccc(F)cc2)CC1`, the protection from apoptosis was inactive: -2.83%.

For `COc1ccc(C(=O)NCC2(N3CCCCC3)CCCCC2)cc1`, the protection from apoptosis was inactive: -6%.

Take `Cc1ccc(OCC(C)C)c(CN(CCCl)CCCl)c1`: the protection from apoptosis is inactive: -5.17%.

As for `COc1cc(C(=O)NCC2(N(C)C)CCCCC2)ccc1OC(F)F`, the protection from apoptosis is inactive: 1.64%.

As for `CCOC(=O)N1CCC(Nc2cccc(C)c2)CC1`, the protection from apoptosis was inactive: 7.72%.

Consider `COc1ccc(NC2CCN(CCc3ccccc3)CC2)c(OC)c1`, for which the protection from apoptosis is inactive: -0.834%.

In the case of `CCOC(=O)N1CCC(Nc2ccc(F)cc2)CC1`, the protection from apoptosis is inactive: -6.49%.

The values are drawn from PubChem BioAssay AID435005 (Broad Institute, 2010).
